Measurements published in PubChem BioAssay AID504692 (The Scripps Research Institute Molecular Screening Center, 2011).
The list shows a part of the results, in another mix than the full data. Active and inactive are the calls of the source. Cut-off read from the data, not from the text of the source: active = activation mostly above about 9.5% (no sharp cut-off); inactive = mostly below about 7.6%.

Chains of the proteins cited; added tags and fusions are not shown.
UniProt P47898, whole entry, looked up: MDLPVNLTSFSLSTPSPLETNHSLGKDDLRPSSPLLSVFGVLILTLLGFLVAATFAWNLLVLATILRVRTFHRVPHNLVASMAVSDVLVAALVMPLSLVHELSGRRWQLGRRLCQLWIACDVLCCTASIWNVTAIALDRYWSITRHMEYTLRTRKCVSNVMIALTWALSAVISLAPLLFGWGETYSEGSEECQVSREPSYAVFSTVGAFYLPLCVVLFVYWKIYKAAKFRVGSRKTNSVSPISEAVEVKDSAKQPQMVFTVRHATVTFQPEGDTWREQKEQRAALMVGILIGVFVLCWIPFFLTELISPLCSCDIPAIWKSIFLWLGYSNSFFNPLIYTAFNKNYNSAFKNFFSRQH

These molecules were tested against 5-hydroxytryptamine receptor 5A (Homo sapiens) (UniProt P47898) (assay: activation of human 5-HT5A receptor – cell-based, luminescence, full-deck HTS, counter-screen for OPRM1-OPRD1 heterodimer agonist project, primary screen (AID 504692;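 note: 0% = cells with vehicle only and 100% = reference agonist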)). Details: HTR5A agonist assay, at 9.3 µM, active compounds read high.

SMILES | activation
O=C(Cn1c(-c2ccccn2)nc2ccccc21)N/N=C/c1ccccn1 | inactive: 4.52%
O=C(CCCCCNC(=O)N1CCn2c1nc1ccccc12)NCc1ccccc1Cl | inactive: 1.66%
COCCN1CCn2c(nc3cc(NC(=O)c4cccs4)ccc32)C1 | inactive: 7.49%
O=C(Cn1c(S(=O)(=O)Cc2ccccc2)nc2ccccc21)N1CCCCC1 | inactive: 14.8%
COc1cccc(CNc2nc3ccccc3n2CCN2CCCCC2)c1 | inactive: 6.88%
O=C(CSc1nc2ccccc2n1CC(=O)N1CCCC1)Nc1ccc2c(c1)OCO2 | inactive: 3.37%
O=C(Nc1ccc2c(c1)nc1n2CCN(C2CCCCC2)C1)c1ccco1 | inactive: 4.87%
O=C(Nc1ccccc1)N1CCn2c(nc3ccccc32)C1 | inactive: 0.35%
COc1cccc(CNC(=O)[C@H](CC(C)C)NC(=O)N2CCn3c2nc2ccccc23)c1 | inactive: 1.02%
COc1ccc(CNC(=O)[C@H](C)NC(=O)N2CCn3c2nc2ccccc23)cc1 | inactive: -1.56%
CCOC(=O)CC[C@H](NC(=O)Cn1cnc2c(OCc3ccccc3)ncnc21)C(=O)OCC | inactive: 5.73%
CCOP(=O)(Nc1cccc2ccccc12)OCC | inactive: 4.38%
O=[As](O)(O)c1cccnc1 | inactive: 2.48%
O=C(Cn1cnc2ccccc21)N/N=C/c1cccnc1 | inactive: -1.97%
CN(C)C(=O)Cn1c(=O)n(C)c2ccccc21 | inactive: 0.03%
Cn1c(=O)c2c(ncn2CC(=O)N2CCCCCC2)n(C)c1=O | inactive: -4.07%
CCC(C)N(C(=O)Cn1cnc2c1c(=O)n(C)c(=O)n2C)C1CCS(=O)(=O)C1 (stereo unspecified) | inactive: -1.14%
Cc1nc2cc(C(F)(F)F)ccc2n1CCNc1nc(-c2ccc([N+](=O)[O-])c(Cl)c2)cs1 | inactive: 3.82%
CC(C)C(NS(=O)(=O)c1cccc2nsnc12)C(=O)N1CCn2c1nc1ccccc12 (stereo unspecified) | inactive: 6.58%
Cc1nc2ccccc2n1CC(=O)NCCN1CCOCC1 | inactive: -0.87%
OCCNc1nc2ccccc2n1CCN1CCCCC1 | inactive: 4.36%
C(=N\c1nc2ccccc2n1CCN1CCOCC1)/c1cccs1 | inactive: -2.46%
COCCCNC(=O)Cn1cnc2c(NCc3ccccc3)ncnc21 | inactive: -0.89%
CS(=O)(=O)c1ccc(Cl)c(NC(=O)COC(=O)C(O)(c2ccccc2)c2ccccc2)c1 | inactive: -5.67%
Cn1c(=O)c2c(ncn2CC(=O)Nc2cccc(S(=O)(=O)Nc3ccccc3F)c2)n(C)c1=O | inactive: -0.54%
O=C(OC1CN2CCC1CC2)c1ccc(Cl)cc1 (stereo unspecified) | inactive: 0.73%
